From patent US6750212B2, “Photochemotherapeutic compositions” (PhotoCure AS, priority 1997, dated 2004)

Assay: Oedema after lamp PDT of WiDr tumours in nude mice
Type: in vivo, Balb/c nu/nu nude mice
Conditions: Example 5.3; high dose A1PcS4 5 mg/kg i.v.
Method: The ethanol was used as the control treatment since the ALA butyl ester formulation contained approx. 2% of ethanol. Mice were irradiated one hour after injection and responses of the tumours were evaluated as regression/regrowth time according to Example 5.1.

Aluminium phthalocyanine tetra-sulfonate [A1PcS4]
oedema: development of a large oedema
